Laboratory results as given in patent publication US8258305B2, “Dopamine transporter inhibitors for use in treatment of movement disorders and other CNS indications” (Prexa Pharmaceuticals, Inc., priority 2005, dated 2012).

Test system: Sprague-Dawley rats
Assay: 7-day multidose oral dosing toxicology study
Conditions: 7 days; for self mutilation (number of animals): n = 6, oral

CC1CCN(CC2(c3ccc(Cl)cc3)CCC2)CC1COc1ccc(C(F)(F)F)cc1 (stereo not drawn) [CNS-27,100]
observed symptoms (Sprague-Dawley rats (n = 6; 3M/3F), oral, 100 mg/kg/day): did not display any significant symptoms
self mutilation (number of animals) (200 mg/kg/day): 1 self mutilation
self mutilation (number of animals) (400 mg/kg/day): 3 self mutilation
